This experiment deals with 5-hydroxytryptamine receptor 2A (Mus musculus) (UniProt P35363). Nature of the experiment: PubChem AID 624503. Particulars: HTR2A-expressing cells, agonist luminescence read-out.

Protein sequences, listed by entry. Tags and fused reporters are not part of them.
UniProt P35363, whole entry, looked up: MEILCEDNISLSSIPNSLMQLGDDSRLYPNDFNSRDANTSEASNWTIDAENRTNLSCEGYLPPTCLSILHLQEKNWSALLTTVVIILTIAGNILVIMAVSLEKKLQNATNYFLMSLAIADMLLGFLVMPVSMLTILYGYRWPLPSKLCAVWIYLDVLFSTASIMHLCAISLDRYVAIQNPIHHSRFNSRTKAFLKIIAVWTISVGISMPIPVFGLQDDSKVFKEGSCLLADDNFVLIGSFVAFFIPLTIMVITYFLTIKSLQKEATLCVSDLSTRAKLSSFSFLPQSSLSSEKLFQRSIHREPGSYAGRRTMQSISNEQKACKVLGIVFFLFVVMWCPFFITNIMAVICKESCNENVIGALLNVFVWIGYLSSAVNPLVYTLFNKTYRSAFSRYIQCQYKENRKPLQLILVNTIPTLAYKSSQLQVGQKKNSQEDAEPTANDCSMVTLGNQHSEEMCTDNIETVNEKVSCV

Activity calls are given as the source filed them. Active and inactive are the words of the source; unless stated, no cut-off is given here.

As usually defined, the EC50 is the concentration giving half of the maximal effect.

For `C#C[C@]1(O)CC[C@H]2[C@@H]3CCC4=CC(=O)CC[C@]4(C)[C@H]3CC[C@@]21C`, the EC50 was 5850 nM.

In the case of `CCCN1C[C@H](CSC)C[C@@H]2c3cccc4[nH]cc(c34)C[C@H]21`, the concentration giving a half-maximal response (EC50) is below 3.8 nM. For `CC(C)[C@@]1(NC(=O)[C@@H]2C[C@@H]3c4cccc5[nH]cc(c45)C[C@H]3N(C)C2)O[C@@]2(O)[C@@H]3CCCN3C(=O)[C@H](Cc3ccccc3)N2C1=O`, the EC50 result is “inactive”. Take `CC(CCc1ccc(O)cc1)NCCc1ccc(O)c(O)c1` (stereo not given): the EC50 is 147 nM.

As to `CN1C[C@H](C(=O)N[C@]2(C)O[C@@]3(O)[C@@H]4CCCN4C(=O)[C@H](Cc4ccccc4)N3C2=O)CC2c3cccc4[nH]cc(c34)C[C@H]21` (stereo not given in full), the EC50 result was “inactive”.

The values are drawn from PubChem BioAssay AID624503 (The Scripps Research Institute Molecular Screening Center, 2012).
